# Tests used:
# Sequences of proteins named here, by UniProt entry; tags and fusion partners are left off.
# UniProt P34913, whole entry: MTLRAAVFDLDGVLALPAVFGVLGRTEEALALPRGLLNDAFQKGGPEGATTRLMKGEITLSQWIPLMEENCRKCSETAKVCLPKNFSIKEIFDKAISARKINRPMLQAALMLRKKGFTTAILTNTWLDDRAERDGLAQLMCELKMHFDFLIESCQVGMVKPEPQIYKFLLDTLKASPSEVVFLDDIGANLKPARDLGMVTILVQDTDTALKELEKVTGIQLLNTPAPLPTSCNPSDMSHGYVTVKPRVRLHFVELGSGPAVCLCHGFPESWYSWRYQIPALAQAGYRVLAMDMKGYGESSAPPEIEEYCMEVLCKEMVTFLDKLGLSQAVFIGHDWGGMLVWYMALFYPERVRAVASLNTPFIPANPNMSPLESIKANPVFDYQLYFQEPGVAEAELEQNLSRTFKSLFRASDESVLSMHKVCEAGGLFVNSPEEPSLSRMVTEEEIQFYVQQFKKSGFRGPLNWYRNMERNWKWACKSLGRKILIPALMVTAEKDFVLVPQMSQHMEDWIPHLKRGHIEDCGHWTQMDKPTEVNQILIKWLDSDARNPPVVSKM
# [1] = target: T1, sEH in human kidney cells (ACHN) (Homo sapiens, UniProt P34913); test: Inhibition of EET-dependent sEH activity in kidney cells; assay type: cell-based
# T1 construct: recombinant sEH and human kidney cells (ACHN); endogenous in cells; host or cells: ACHN human kidney cells
# [2] = target: recombinant sEH (Homo sapiens, UniProt P34913); test: Inhibition of EET-dependent sEH activity, reconstituted system; assay type: biochemical
substance,measurement,setting,value
"12[[(tricycle[3.3.1.13,7]dec-1-ylamino)carbonyl]amino]-dodecanoic acid [AUDA]",EET-dependent sEH activity,[1],inhibited
same,EET-dependent sEH activity,[2],inhibited
same,inhibitor of the sEH activity (overall statement),[2],potent inhibitors
